Assays:
[1] = test system: AsPc-1, Capan-1, Capan-2, and L3.6pl; settings: pancreatic cancer cell lines
[2] = test system: A375 doxorubicin-resistant (A375DR); test: Cytotoxicity on parental and doxorubicin-resistant cells; type: cell-based, human
Protocol: To examine the cytotoxicity of GrB/scFvMEL or MEL/sFv/rGel, melanoma cells were plated on 96-well plates at a density of 4×10^3 cells per well and allowed to adhere for 24 hr at 37° C. in 5% CO2. After 24 hr, the medium was replaced with medium that contained various concentrations of fusion proteins. […] The percent of control refers to the percentage of cells in the drug-treated wells compared to that of control (untreated) wells.
Expression of the gp240 antigen was assessed by ELISA using ZME-018 antibody specifically recognizing gp240 antigen.

Row | SMILES | cytotoxic effect of agent combined with scFv23/TNF [1] | Resistance Index (I.C.50 on A375DR)/(I.C.50 on A375) [2]
1 | O=c1[nH]cc(F)c(=O)[nH]1 [5-Fluorouracil, 5-fluorouracil] | synergistic | 
2 | COc1cccc2c1C(=O)c1c(O)c3c(c(O)c1C2=O)C[C@@](O)(C(=O)CO)C[C@@H]3O[C@H]1C[C@H](N)[C@H](O)[C@H](C)O1 [Doxorubicin] | antagonistic | 400
